The list shows a part of the results, in another mix than the full data. Inconclusive results are not listed. Calls of active or inactive are those of the source. Calls follow the shape of the dose curve; as a rule, active = well fitted inhibition curve with a large enough effect; inconclusive = small, poorly fitted or top-dose-only effect, or another doubt; inactive = no such curve, though single readings can be large or run the other way.
Each compound was assayed against DNA polymerase eta (Homo sapiens) (UniProt Q9Y253) (assay: qHTS for Inhibitors of Polymerase Eta). Conditions: recombinant Pol eta, fluorescent DNA replication assay; series mostly up to 114 µM; activity change, negative = inhibition: at the top concentration.
% is scaled to controls: 0 for no effect and ±100 for the full control effect; potency is read from the fitted curve at half-maximal effect.

The chains behind the UniProt entries cited, without tags or fusion partners. Where a name states a change or a piece, a line headed by the entry shows the natural chain unless it says otherwise.
UniProt Q9Y253: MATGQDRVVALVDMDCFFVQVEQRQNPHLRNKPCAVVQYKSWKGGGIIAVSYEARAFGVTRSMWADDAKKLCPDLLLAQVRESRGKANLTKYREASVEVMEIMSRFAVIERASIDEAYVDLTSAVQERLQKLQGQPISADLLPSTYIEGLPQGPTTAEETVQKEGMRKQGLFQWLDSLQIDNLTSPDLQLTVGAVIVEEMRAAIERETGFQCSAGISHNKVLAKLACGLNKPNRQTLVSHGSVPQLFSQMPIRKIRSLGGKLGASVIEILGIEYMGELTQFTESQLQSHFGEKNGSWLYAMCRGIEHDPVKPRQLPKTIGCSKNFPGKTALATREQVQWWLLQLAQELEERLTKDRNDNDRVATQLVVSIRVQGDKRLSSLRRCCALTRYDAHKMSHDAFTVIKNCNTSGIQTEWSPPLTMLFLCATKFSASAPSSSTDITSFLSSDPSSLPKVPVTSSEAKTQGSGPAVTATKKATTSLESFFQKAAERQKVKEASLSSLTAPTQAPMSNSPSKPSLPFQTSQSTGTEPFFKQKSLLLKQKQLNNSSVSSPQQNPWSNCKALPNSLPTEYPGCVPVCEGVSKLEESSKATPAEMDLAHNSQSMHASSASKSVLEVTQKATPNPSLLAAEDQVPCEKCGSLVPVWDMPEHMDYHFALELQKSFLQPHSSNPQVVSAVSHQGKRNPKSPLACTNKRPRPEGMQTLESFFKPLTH

Structure (SMILES) | activity change, negative = inhibition | Potency
COP1(=S)c2c(C)nn(CCC#N)c2N=C(c2ccc(F)cc2)N1C (stereo not drawn) | inactive: 0.863% | 
O=C(O)C(=O)c1ccc(N(CCCl)CCCl)cc1 | inactive: 3.06% | 
O=C(COc1ccccc1)OC1CN2CCC1CC2 (stereo not drawn) | inactive: -11% | 
O=C(Nc1ccncc1[N+](=O)[O-])c1ccc([N+](=O)[O-])cc1[N+](=O)[O-] | inactive: -2.17% | 
O=C(OC1CN2CCC1CC2)c1cccc([N+](=O)[O-])c1 (stereo not drawn) | inactive: -14.7% | 
CSc1ccc(Nc2c([N+](=O)[O-])cc([N+](=O)[O-])cc2[N+](=O)[O-])cc1 | inactive: -0.949% | 
CCOC(=O)c1ccc(NC(=O)C(C)(CCl)SC)cc1 (stereo not drawn) | inactive: 4.16% | 
CCC(C)N(CC(C)C)C(=S)SC(NC(C)=O)C(Cl)(Cl)Cl (stereo not drawn) | inactive: -23.8% | 
O=C(O)C(O)c1ccc(N(CCCl)CCCl)cc1 (stereo not drawn) | inactive: -3.7% | 
CCOC(=O)Nc1ccc([As](=O)(O)O)c(O)c1 | inactive: 11.7% | 
CC1CCNP(=O)(N(CCCl)CCCl)O1 (stereo not drawn) | inactive: -6.03% | 
COP(=O)(OC)N1CC1c1ccccc1 (stereo not drawn) | inactive: 0.899% | 
CCCCOc1ccc(C(=O)NCC2(N3CCCCC3)CCCCC2)cc1OC | inactive: -21.9% | 
Cc1cc(SC(NC(=O)c2ccccc2)C(Cl)(Cl)Cl)nc(C(C)C)n1 (stereo not drawn) | inactive: -16.9% | 
CCOC(=O)Nc1cccc([As](=O)(O)O)c1 | inactive: 15.4% | 
Cc1cc(SC(NC=O)C(Cl)(Cl)Cl)ncn1 (stereo not drawn) | inactive: 2.52% | 
O=P(Nc1ccccn1)(c1cccc2ccccc12)c1cccc2ccccc12 | inactive: -19.6% | 
O=[N+]([O-])c1ccc(Nc2ccc(Oc3ccc([N+](=O)[O-])cc3[N+](=O)[O-])cc2)c([N+](=O)[O-])c1 | inactive: -11.4% | 
O=[As](O)(c1ccc(O)cc1)c1ccccc1O | inactive: -17% | 
C[As](=O)(O)c1cccc(C(=O)O)c1 | inactive: -9.71% | 

Structure (SMILES) | activity change, negative = inhibition | Potency
O=[N+]([O-])c1ccc(-c2cc([N+](=O)[O-])c(O)c([N+](=O)[O-])c2)cc1 | inactive: -5.75% | 
COc1cc(C(=O)NCC2(N3CCOCC3)CCCCC2)ccc1OCC(C)C | inactive: -11.3% | 
Cc1ccc(OP(=O)(Nc2ccc([N+](=O)[O-])cn2)Oc2ccc(C)cc2)cc1 | inactive: 7.03% | 
Cc1ccc2nc3c(c(C)c2c1)CC(C(Cl)Cl)S3 (stereo not drawn) | inactive: -17.2% | 
ClCCSc1nnc(-c2cccnc2)o1 | inactive: -5.55% | 
COC(=O)C1(C)COP(=O)(N2CCCCCC2)OC1 (stereo not drawn) | inactive: -10.3% | 
CC(C)c1ccc(OP(=O)(Nc2ccccn2)Oc2ccccc2F)cc1 (stereo not drawn) | inactive: -17.4% | 
CC(C)NC(=O)NP(=O)(Oc1ccccc1)Oc1ccccc1 | inactive: 2.12% | 
CCN(CC)C(=S)SC(NC=O)C(Cl)(Cl)Cl (stereo not drawn) | inactive: -0.399% | 
O=C(OC1CN2CCC1CC2)c1cccc2[nH]cnc12 (stereo not drawn) | inactive: -8.71% | 
Cc1c2c(nc3ccccc13)SC(C(Cl)Cl)C2 (stereo not drawn) | inactive: -18.6% | 
O=C(OC1CN2CCC1CC2)C12CC3CC(CC(C3)C1)C2 (stereo not drawn) | inactive: -5.06% | 
Cc1cc(=O)[nH]c(N[N+](=O)[O-])n1 | inactive: 3.41% | 
O=P1(N(CCCl)CCCl)Nc2ccccc2N1 | inactive: 2.75% | 
O=P1(N(CCCl)CCCl)OCCCN1CCCl (stereo not drawn) | inactive: -8.24% | 
COc1ccc2nc(NP(=O)(c3ccccc3)c3ccccc3)sc2c1 | inactive: -16.3% | 
COc1cc(I)ccc1[As](=O)(O)O | inactive: -4.41% | 
O=[N+]([O-])c1cc(Oc2ccc([N+](=O)[O-])cc2C(F)(F)F)cc([N+](=O)[O-])c1 | inactive: -5.54% | 
COc1ccc(N/C(=N/P(=O)(N2CCOCC2)N2CCOCC2)N2CCOCC2)cc1 | inactive: -21% | 
O=C(OC1CN2CCC1CC2)c1ccc(Cl)cc1 (stereo not drawn) | inactive: -11.1% | 

Structure (SMILES) | activity change, negative = inhibition | Potency
CN(C(=O)Cc1ccc(Cl)c(Cl)c1)[C@@H]1CC[C@]2(CCCO2)C[C@H]1N1CCCC1 | inactive: -2.07% [at 57.1 µM] | 
O=[As](O)(O)c1cccnc1 | inactive: 3.13% | 
COc1cc(C(=O)NCC2(N3CCOCC3)CCCCC2)cc(Cl)c1OC(C)C | inactive: -7.98% | 
CS(=O)(=O)c1ccc(Cl)c(NC(=O)COC(=O)C(O)(c2ccccc2)c2ccccc2)c1 | inactive: -20.4% | 
Cc1cccc(OCC(=O)OC2CN3CCC2CC3)c1 (stereo not drawn) | inactive: -0.163% | 
O=[As](O)(c1cccc(O)c1)c1cccc(O)c1 | inactive: -8.92% | 
Cc1ccc(NCCc2c([N+](=O)[O-])cc([N+](=O)[O-])cc2[N+](=O)[O-])cc1 | inactive: -16.3% | 
Nc1cccc2c([As](=O)(O)O)cccc12 |  | active: 20 µM
CCCOP(=S)(Nc1nc(N)cc(=O)[nH]1)OCCC | inactive: -14.9% | 
COc1cc(C2NCCC3(OCCO3)C2(C)C)cc(OC)c1OC (stereo not drawn) | inactive: -18.9% | 
CCOP(=O)(Nc1cccc2ccccc12)OCC | inactive: -2.67% | 
CCOP1(=S)c2c(C)nn(CCC#N)c2N=C(c2ccccc2F)N1C (stereo not drawn) | inactive: -13.4% | 
O=P(Nc1nccs1)(Oc1ccccc1)Oc1ccccc1 | inactive: -7.86% | 
O=P(Nc1nccs1)(c1ccccc1)c1nc2ccccc2s1 (stereo not drawn) | inactive: 6.2% | 
CS(=O)(=O)c1cc([N+](=O)[O-])c2no[n+]([O-])c2c1 |  | active: 79.4 µM
O=C(O)COc1ccc([As](=O)(O)O)cc1[N+](=O)[O-] | inactive: 5.58% | 
Nc1ccccc1[As](=O)(O)c1ccccc1 | inactive: -16.5% | 
NC(=O)Nc1ccc([As](=O)(O)O)cc1 | inactive: -3.1% | 
